This is an account of results in ChEMBL document CHEMBL5725827, “2-pyridyloxy-3-ester-4-nitrile orexin receptor antagonists” (2017).

Chains of the proteins cited; added tags and fusions are not shown.
UniProt P56718, whole entry, looked up: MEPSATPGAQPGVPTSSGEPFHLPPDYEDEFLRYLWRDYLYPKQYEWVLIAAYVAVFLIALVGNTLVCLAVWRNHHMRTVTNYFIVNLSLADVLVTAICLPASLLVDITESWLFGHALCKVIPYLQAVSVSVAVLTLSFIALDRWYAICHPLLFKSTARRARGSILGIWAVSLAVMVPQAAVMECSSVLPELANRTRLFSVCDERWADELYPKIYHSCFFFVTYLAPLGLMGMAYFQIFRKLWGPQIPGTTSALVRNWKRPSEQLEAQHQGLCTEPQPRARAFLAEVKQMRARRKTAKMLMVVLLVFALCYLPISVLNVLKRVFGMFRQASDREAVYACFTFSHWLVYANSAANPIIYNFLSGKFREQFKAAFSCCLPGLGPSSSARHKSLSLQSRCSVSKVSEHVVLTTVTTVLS

One may read the Ki as a measure of affinity in units of concentration, obtained from inhibition or displacement. Read a high Ki as a looser hold on the target.

This assay has as its target Orexin/Hypocretin receptor type 1 (Rattus norvegicus, UniProt P56718). The assay can be described thus: Radioligand Binding Assay: Described in Bergman et. al. Bioorg. Med. Chem. Lett. 2008, 18, 1425-1430. More on the design: species or system Homo sapiens.
`COC(=O)c1c(C#N)ccnc1O[C@@H]1CC[C@@H](C)N(C(=O)c2ccc(C)cc2-n2nccn2)C1`: the Ki was 178 nM.

Turning to `COC(=O)c1c(C#N)ccnc1O[C@@H]1CC[C@@H](C)N(C(=O)c2c(F)cccc2-c2noc(C)n2)C1`, the Ki was 188 nM. In the case of `COC(=O)c1c(C#N)ccnc1O[C@@H]1CC[C@@H](C)N(C(=O)c2ccc(OC)nc2-n2nccn2)C1`, affinity was put at a Ki of 1420 nM. On to `COC(=O)c1c(C#N)ccnc1O[C@@H]1CC[C@@H](C)N(C(=O)c2ccc(F)cc2-c2noc(C)n2)C1`, for which the affinity, expressed as Ki, was 332 nM. In the case of `COC(=O)c1c(C#N)ccnc1O[C@@H]1CC[C@@H](C)N(C(=O)c2ccccc2C2CCC2)C1` it was 241 nM; in that of `COC(=O)c1c(C#N)ccnc1O[C@@H]1CC[C@@H](C)N(C(=O)c2cccc(F)c2-c2ncccn2)C1`, 174 nM; in that of `COC(=O)c1c(C#N)ccnc1O[C@@H]1CC[C@@H](C)N(C(=O)c2c(F)cccc2-c2nc(C)no2)C1`, 170 nM. `COC(=O)c1c(C#N)ccnc1O[C@@H]1CC[C@@H](C)N(C(=O)c2cccc(C)c2-n2nccn2)C1` displayed a Ki of 57.8 nM. In the case of `COC(=O)c1c(C#N)ccnc1O[C@@H]1CC[C@@H](C)N(C(=O)c2c(F)cccc2-c2ncccn2)C1`, the affinity corresponds to a Ki of 48 nM.
